Assay outcomes (PubChem BioAssay)
This is a sample that favours compounds with a hit; in the whole collection about 1.7% have one here.
CDK5 inh = blocks human CDK5/p35 kinase activity; AID 488839; inhibition, % at 10 µM; hit rate 0.01% among 330,000; Q00535+Q15078; Recombinant CDK5/p35, ADP-Glo luminescence, 60 min;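 active = highest replicate inhibition of at least 50% and at least 75% of replicates reaching 50%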;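 note: plate controls were DMSO neutral control for no effect and GW8510 at 10 µM for full effect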
Yeast UUG start-1 = yeast start codon fidelity modulation; activity score, % at 18.7 µM; actives 0.13% (n = 350,000); S. cerevisiae UUG-firefly luciferase reporter, luminescence/redox ratio; AID 602363;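 active means replicate mean at a twofold rise or more, about +100% in these data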;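 further: firefly luciferase made from a UUG start codon reports start codon fidelity; reporter light over untreated wells divided by growth signal over untreated wells; some hits fall short of that in this replicate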
CAL PDZ FP-1 = CAL PDZ (human) peptide binding inhibition; AID 602252; hit rate 0.92% among 300,000; inhibition, % at 24.9 µM; purified CAL PDZ, TMR-peptide fluorescence polarization, 1 h;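 active = mean inhibition of at least 30% with at least half of replicates also reaching 30%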;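 note: 0% = DMSO neutral control and 100% = excess unlabeled competitor peptide PRC23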
DYRK1A inh = blocks rat Dyrk1A kinase activity; Q63470; ADP-Glo luminescence, NFATc1 peptide; inhibition, % at 12.5 µM; hit rate 0.43% among 310,000; AID 504441; in the data active = inhibition above about 50%;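 note: plate controls were vehicle with enzyme for no effect and no enzyme for full effect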
CAL PDZ FP-2 = blocks peptide binding to human CAL PDZ domain; Q9HD26; hit rate 0.02% among 330,000; inhibition, % at 20 µM; purified CAL PDZ, TMR-peptide fluorescence polarization, 1 h;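 active = highest replicate inhibition of at least 40%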;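 note: plate controls were DMSO neutral control wells for no effect and unlabeled competitor peptide control wells for full effect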
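Test system: purified CerCALP PDZ construct; Compound dosing: one concentration, 20 µM compound; Also added: TMR-labelled reporter peptide T*-PRC34 bound in PDZ groove; Read-out: inhibition from polarization loss; Controls: unlabelled peptide and DMSO controls; Signal: FP readout, S and P plane fluorescence; Incubation: 1 h at RT.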
dFosB act = activators of mouse delta FosB homodimer; P13346; purified delta FosB, TAMRA-CDK5 oligo fluorescence polarization; percent of positive-control signal above neutral wells; activation, % at 25 µM; hit rate 0.99% among 340,000; AID 493131;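 active = mean activation above about 17%, with every replicate also reaching it, limit read from the data, passing the limit was not always enough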
Yeast UUG start-2 = yeast start codon fidelity modulation; S. cerevisiae UUG-start firefly luciferase, luminescence, 4 h; 100% means double the DMSO signal; shares compounds with Yeast UUG start-1; activation, % at 38 µM; 540 tested, under 10 active;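 active = signal increase whose fitted curve reaches an absolute level of 40 at a concentration under 10 µM; inactive = activity opposite to the expected increase, or the rest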
Numbers without * were called inactive; i = inactive; x = no result.

SMILES | CDK5 inh | Yeast UUG start-1 | CAL PDZ FP-1 | DYRK1A inh | CAL PDZ FP-2 | dFosB act | Yeast UUG start-2
O=C1c2ccccc2C(=O)c2c(Nc3ccc(CCO)cc3)ccc(O)c21 | -1 | active | -3 | 5 | x | -2 | -24
CC1Sc2ccc(C(=O)N(CCc3ccccc3)Cc3ccccc3)cc2NC1=O (configuration not stated) | x | 103* | x | x | x | x | 18
O=C(c1ccc(Cn2c(=O)[nH]c3ccccc3c2=O)cc1)N1CCN(c2ccccc2)CC1 | 2 | 480* | 1 | 2 | -2 | -5 | 15
COc1cccc(C(=O)Nc2ccc3c(c2)C(=O)N(C)C[C@H](OC)[C@@H](C)CN(C)[C@H](C)CO3)c1 | x | 8 | x | x | x | x | x
CCOC(=O)CNC(=O)c1nn(-c2ccc(OCC)cc2)c(=O)c2ccccc12 | -1 | 119* | x | -2 | -1 | -7 | -9
CCCc1cc(=O)[nH]c(SCC(=O)c2cc(C)n(-c3cc(C)on3)c2C)n1 | 1 | x | 1 | -4 | -2 | -2 | -2
Cc1cc(-n2c(C)cc(C(=O)CSc3nc(N)cc(=O)[nH]3)c2C)no1 | 0 | -8 | 1 | -3 | -1 | -1 | 5
COCC#Cc1ccc2c(c1)O[C@H](CN(C)S(=O)(=O)c1ccc(F)cc1)[C@H](C)CN([C@@H](C)CO)S2(=O)=O | x | 39 | x | x | x | x | x
CC1(C(O)(C#CC[N+]2(C)CCCCC2)c2ccccc2)CCCC1 (configuration not stated) | 4 | x | -11 | -2 | x | 6 | x
CC1(C#CC[N+]2(C)CCCCC2)CCC2C(O1)c1ccccc1OC2(C)C (configuration not stated) | -2 | active | x | -1 | -3 | -8 | -4
N=c1c(C(=O)NC2CCCC2)cc2c(=O)n3ccccc3nc2n1CCN1CCOCC1 | 2 | 474* | 0 | 0 | -2 | -3 | -9
N=c1c(C(=O)NC2CCCC2)cc2c(=O)n3ccccc3nc2n1CCCN1CCOCC1 | -2 | -6 | 13 | 2 | -2 | -7 | x
Cc1ccc(S(=O)(=O)Nc2ccc3c(c2)C(=O)N([C@H](C)CO)C[C@@H](C)[C@H](CN(C)C(=O)CCC(F)(F)F)OCCCC[C@@H](C)O3)cc1 | x | -10 | x | x | x | x | x
O=C(Nc1ccc([N+](=O)[O-])cc1)C(=O)Nc1cccc(C(=O)O)c1 | 1 | 171* | 2 | 29 | -1 | -4 | -56
COc1ccc(S(=O)(=O)N[C@@H]2CC[C@@H](CC(=O)NCCc3ccccc3)O[C@H]2CO)cc1 | x | -5 | x | x | x | x | x
C[C@H]1CN([C@@H](C)CO)S(=O)(=O)c2ccc(C3=CCCCC3)cc2O[C@H]1CN(C)Cc1ccccc1 | x | 10 | x | x | x | x | x
C/C=C/c1ccc2c(c1)O[C@H](CN(C)C(=O)C1CCCCC1)[C@H](C)CN([C@H](C)CO)S2(=O)=O | x | 201* | x | x | x | x | i
CCCN(C)C[C@H]1Oc2cc(/C=C/c3ccccc3)ccc2S(=O)(=O)N([C@H](C)CO)C[C@@H]1C | x | 10 | x | x | x | x | x
CCCN(C)C[C@@H]1Oc2cc(C3=CCCCC3)ccc2S(=O)(=O)N([C@@H](C)CO)C[C@@H]1C | x | 156* | x | x | x | x | i
C/C=C/c1ccc2c(c1)O[C@H](CN(C)Cc1ccc(C(=O)O)cc1)[C@@H](C)CN([C@H](C)CO)S2(=O)=O | x | 7 | x | x | x | x | x
C/C=C/c1ccc2c(c1)O[C@@H](CN(C)CCC)[C@@H](C)CN([C@H](C)CO)S2(=O)=O | x | 85* | x | x | x | x | i
C/C=C/c1ccc2c(c1)O[C@H](CN(C)C(=O)C1CC1)[C@@H](C)CN([C@@H](C)CO)S2(=O)=O | x | -6 | x | x | x | x | x
C/C=C/c1ccc2c(c1)O[C@H](CN(C)Cc1ccc(C(=O)O)cc1)[C@H](C)CN([C@H](C)CO)S2(=O)=O | x | 192* | x | x | x | x | i
CC(C)C(=O)Nc1ccc2c(c1)C(=O)N(C)[C@@H]1CC[C@H](CC(=O)NCc3ccccc3)O[C@H]1CO2 | x | 16 | x | x | x | x | x
COc1ccc2oc(C(=O)OCC(=O)N(C)Cc3ccccc3)c(C)c2c1 | 1 | 11 | -3 | 4 | -1 | -19 | 10
COc1ccc2oc(C(=O)OCC(=O)NCc3ccc(OC)c(OC)c3)c(C)c2c1 | 0 | -3 | -2 | -2 | -2 | 10 | 6
COc1ccc2oc(C(=O)OCC(=O)Nc3ccccc3)c(C)c2c1 | -2 | -11 | -2 | 13 | -3 | -11 | x
COc1ccc2oc(C(=O)OCC(=O)NC(C)c3ccccc3)c(C)c2c1 (configuration not stated) | 0 | -3 | -3 | 2 | -2 | -13 | 11
C[C@H]1CN([C@@H](C)CO)C(=O)c2cc(NC(=O)Nc3ccc(C(F)(F)F)cc3)ccc2O[C@@H]1CN(C)Cc1ccccc1 | x | -1 | x | x | x | x | x
COc1ccc(-c2ccc3c(c2)[C@H]2[C@H](CCN2S(=O)(=O)c2ccccc2C)[C@H](CO)N3C)cc1 | x | 3 | x | x | x | x | x
CCN(CC)CC#CCC(O)(c1ccccc1)C1CCCC1 (configuration not stated) | -1 | -13 | 5 | -2 | -2 | -10 | x
CCN(CC)CC#CCC(OC)(c1ccccc1)c1ccccc1 | 0 | x | -1 | 2 | 2 | 3 | 4
CCN(CC)CC#CC(O)(c1ccccc1)c1ccccc1 | 1 | x | -3 | 2 | 0 | -2 | 15
C[C@@H]1CN([C@@H](C)CO)C(=O)c2cc(NS(=O)(=O)c3cn(C)cn3)ccc2O[C@@H](C)CCCCO[C@@H]1CN(C)C(=O)Nc1ccc(F)cc1 | x | -1 | x | x | x | x | x
Fc1ccc(NC(=S)NCc2cccs2)cc1 | 2 | 253* | -1 | 23 | 1 | -1 | -6
C[C@@H]1CN([C@@H](C)CO)C(=O)c2cc(NC(=O)c3ccccc3)ccc2O[C@@H](C)CCCCO[C@H]1CN(C)Cc1ccc2c(c1)OCO2 | x | 8 | x | x | x | x | x
O=C(CN1CCOCC1)N1CCN(c2ccc([N+](=O)[O-])cc2)CC1 | -2 | x | 2 | x | 0 | 2 | -6
C[C@H](CO)N1C[C@H](C)[C@H](CN(C)C(=O)CN(C)C)Oc2cc(C#CCC3CCCC3)ccc2S1(=O)=O | x | 107* | x | x | x | x | i
C[C@@H]1CN([C@H](C)CO)S(=O)(=O)c2ccc(C#CCC3CCCC3)cc2O[C@@H]1CN(C)C(=O)CN(C)C | x | 129* | x | x | x | x | i
CCN(C[C@H]1[C@@H](c2ccccc2)[C@@H](CO)N1C(C)=O)C(=O)c1ccccn1 | x | 127* | x | x | x | x | i
C=CC1c2ccccc2/C=C(C(=O)OC)\C(C(=O)OC)=C/N1Cc1ccc(OC)cc1 (configuration not stated) | x | -10 | x | x | x | x | x
CC(C)(C)C(=O)COC(=O)c1ccc(O)cc1 | 3 | 387* | -2 | -1 | -1 | 1 | 20
CC(C)NC(=O)Nc1ccc2c(c1)C(=O)N([C@H](C)CO)C[C@H](C)[C@H](CN(C)S(=O)(=O)c1cn(C)cn1)OCCCC[C@H](C)O2 | x | -1 | x | x | x | x | x

Part of the list above, tab-delimited:
smiles	CDK5 inh	Yeast UUG start-1	CAL PDZ FP-1	DYRK1A inh	CAL PDZ FP-2	dFosB act	Yeast UUG start-2
CCN(CC)CC#CC(O)(c1ccccc1)c1ccccc1	1	x	-3	2	0	-2	15
C[C@@H]1CN([C@@H](C)CO)C(=O)c2cc(NS(=O)(=O)c3cn(C)cn3)ccc2O[C@@H](C)CCCCO[C@@H]1CN(C)C(=O)Nc1ccc(F)cc1	x	-1	x	x	x	x	x
Fc1ccc(NC(=S)NCc2cccs2)cc1	2	253*	-1	23	1	-1	-6
C[C@@H]1CN([C@@H](C)CO)C(=O)c2cc(NC(=O)c3ccccc3)ccc2O[C@@H](C)CCCCO[C@H]1CN(C)Cc1ccc2c(c1)OCO2	x	8	x	x	x	x	x
O=C(CN1CCOCC1)N1CCN(c2ccc([N+](=O)[O-])cc2)CC1	-2	x	2	x	0	2	-6
